Laboratory results as given in ChEMBL document CHEMBL4330144, “A mitochondria-targeted organic arsenical accelerates mitochondrial metabolic disorder and function injury” (Bioorg Med Chem, 2019).

Experiments:
NB-4 [1] = assay: Cytotoxicity against human NB4 cells after 24 hrs by MTT assay; format: functional, cell-based
HL-60 [2] = assay: Cytotoxicity against human HL60 cells after 24 hrs by MTT assay; format: functional, cell-based
HeLa [3] = assay: Cytotoxicity against human HeLa cells after 24 hrs by MTT assay; format: functional, cell-based
SGC-7901 [4] = assay: Cytotoxicity against human SGC7901 cells after 24 hrs by MTT assay; format: functional, cell-based
MCF7 [5] = assay: Cytotoxicity against human MCF7 cells after 24 hrs by MTT assay; format: functional, cell-based
HEK293 [6] = assay: Cytotoxicity against HEK293 cells after 24 hrs by MTT assay; format: cell-based, Homo sapiens
NB-4 [7] = assay: Cytotoxicity against human NB4 cells after 48 hrs by MTT assay; format: functional, cell-based
HL-60 [8] = assay: Cytotoxicity against human HL60 cells after 48 hrs by MTT assay; format: functional, cell-based
HeLa [9] = assay: Cytotoxicity against human HeLa cells after 48 hrs by MTT assay; format: functional, cell-based
SGC-7901 [10] = assay: Cytotoxicity against human SGC7901 cells after 48 hrs by MTT assay; format: functional, cell-based
MCF7 [11] = assay: Cytotoxicity against human MCF7 cells after 48 hrs by MTT assay; format: functional, cell-based
HEK293 [12] = assay: Cytotoxicity against HEK293 cells after 48 hrs by MTT assay; format: cell-based, Homo sapiens

Nc1ccc([As]2SCCCS2)cc1
IC50 (NB-4 [1]): 1.25 µM
IC50 (HL-60 [2]): 1.12 µM
IC50 (HeLa [3]): 2.51 µM
IC50 (SGC-7901 [4]): 6.44 µM
IC50 (MCF7 [5]): 9 µM
IC50 (HEK293 [6]): 6.27 µM
IC50 (NB-4 [7]): 0.82 µM
IC50 (HL-60 [8]): 1.01 µM
IC50 (HeLa [9]): 1.02 µM
IC50 (SGC-7901 [10]): 2.19 µM
IC50 (MCF7 [11]): 3.36 µM
IC50 (HEK293 [12]): 2.72 µM
